In test [1] the target is T1, matriptase (Charles Craik, UCSF), recombinant (Homo sapiens (Human), UniProt Q9Y5Y6).
T1 sequence: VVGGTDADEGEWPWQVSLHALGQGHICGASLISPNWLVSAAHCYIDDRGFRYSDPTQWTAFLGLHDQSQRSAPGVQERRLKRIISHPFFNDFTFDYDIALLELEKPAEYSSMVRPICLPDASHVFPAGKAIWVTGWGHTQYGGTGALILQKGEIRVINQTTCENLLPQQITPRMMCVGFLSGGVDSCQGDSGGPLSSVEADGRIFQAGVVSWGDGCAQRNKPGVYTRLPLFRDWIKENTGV
Nature of the test: fluorogenic inhibition assay. The procedure:
Inhibitors (11-pt serial dilutions, 0-20 μM final concentration in reaction) were serially diluted in DMSO (2% DMSO final concentration) and then mixed with either recombinant serine protease domain of HGFA [Z. Han, P. K. Harris, D. E. Jones, R. Chugani, T. Kim, M. Agarwal, W. Shen, S. A. Wildman, J. W. Janetka, Acs Med Chem Lett 2014, 5, 1219-1224], matriptase (Charles Craik, UCSF) or hepsin* (#4776-SE-010, R&D Systems, Minneapolis, Minn.) in black 384 well plates (Corning #3575. Corning, N.Y.). […] The final substrate concentrations for all assays were at the Kₘ for the respective enzymes. Changes in fluorescence (excitation at 380 nm and emission at 460 nm) were measured at room temperature over time in a Biotek Synergy 2 plate reader (Winnoski, Vt.). Using GraphPad Prism version 6.04 software program, (GraphPad Software, San Diego, Calif., www.graphpad.com), a four parameter curve fit was used to determine the inhibitor IC₅₀s from a plot of the mean reaction velocity versus the inhibitor concentration. The IC₅₀ values represent the average of three separate experimental determinations.
Fluorescent inhibitor and chromogenic proteolytic assays were performed in general accordance with the procedures described in Example 4 for compounds prepared in Examples 5 and 6.

The target in test [2] is Hepatocyte Growth Factor Activator (HGFA) serine protease domain, N-terminal His-tag, recombinant (Homo sapiens (Human)) (UniProt Q04756). Nature of the test: fluorogenic inhibition assay.

*: point of attachment. kbt = C-terminal ketobenzothiazole, c1ccc2sc(*)nc2c1; Fmoc = O=C(OCC1c2ccccc2-c2ccccc21)*

By Ki is commonly meant the dissociation constant of the complex between target and ligand, obtained from inhibition or displacement. With LLR (free N-terminus (H-); C-terminal ketobenzothiazole carrying Val-NH2) [H-LLR-kbt-Val-NH2], in test [1], the Ki was determined as 0.0236 µM.

With Fmoc-Met-Arg-kbt [Fmoc-MR-kbt], the Ki in test [2] stood at 1.21 µM.

Source of the values: patent publication US20180066015A1, “INHIBITORS OF GROWTH FACTOR ACTIVATION ENZYMES” (Washington University, published 2018).
